Screening data: PubChem BioAssay, ICCB-Longwood Screening Facility, Harvard Medical School
HCMV UL50-53 inh: inhibitors of HCMV UL50-UL53 nuclear egress complex interaction | HTRF UL50-UL53 interaction, normalized percent inhibition | inhibition, % (no concentration beside the values) | actives 0.15% (n = 190,000); in the data active = inhibition above about 27%, passing the limit was not always enough
GIV Gai3 FP: inhibitors of GIV peptide binding to Galpha-i3, primary screen, biochemical, fluorescence polarization, FITC-GIV GBA peptide, rat Galphai3 | 90 min; hits give low values; scaled: aluminum fluoride 0%, vehicle 100% | percent of control (FP), % (concentration not given with the values) | 210,000 compounds, 0.42% hits | AID 1224905, 2016;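 active = replicate mean at 85% of control or lower, very high polarization wells dropped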;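 also: wells of about 15 µL received 100 nL stock; the first replicate is given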
GIV-Gai FP conf: GIV-Galpha-i3 inhibition, FP confirmation; shares compounds with GIV Gai3 FP; FITC-GIV peptide binding to Galphai3, fluorescence polarization; active compounds read low; fluorescence polarization, mP at 100 µM; actives 38% (n = 580);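 active = inhibition score of 15 or more, meaning 100 minus mean polarization as percent of control over three replicates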;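 note: lower mP means peptide displaced from Galphai3 so more inhibition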
GIV-Gai AS conf: GIV-Galpha-i3 inhibition, AlphaScreen confirmation; shares compounds with GIV Gai3 FP; AlphaScreen Galphai3-GIV binding, purified proteins, 90 min; active compounds read low; AlphaScreen counts at 100 µM; actives 39% (n = 580); AID 1259351;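 active = inhibition score at or above a set limit, where the score is 100 minus the three-replicate mean percent of control signal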
Numbers stand for hits; n = inactive; x = not tested or not shown. Hits are enriched below; roughly 0.43% of the tested compounds scored in any of these assays.

SMILES | HCMV UL50-53 inh | GIV Gai3 FP | GIV-Gai FP conf | GIV-Gai AS conf
O=C1NC(=O)N(Cc2ccco2)C(=O)/C1=C\c1ccco1 | n | 61 | 46 | 1412
C=CCN1C(=O)NC(=O)/C(=C/c2ccco2)C1=O | x | n | x | x
COc1ccccc1N1C(=O)NC(=O)/C(=C\C=C\c2ccco2)C1=O | x | n | x | x
C=CCN1C(=O)/C(=C/c2ccco2)C(=O)NC1=S | n | 46 | 52 | 936
CC1CC(O)(c2ccccc2)C(C)CN1C (stereo unspecified) | n | n | x | x
S=P1(NCc2ccccc2)NC(=NCc2ccccc2)c2c(nc3n2CCC3)N1 (stereo unspecified) | n | n | x | x
COc1cc(C=C2C(=O)NC(=O)NC2=O)cc(Cl)c1OCCOc1ccccc1 | n | n | x | x
CCOc1cc(C=C2C(=O)NC(=O)NC2=O)cc(Cl)c1O | n | 72 | n | 5092
CCc1ccc(C=C2C(=O)N(C)C(=S)N(C)C2=O)cc1 | n | n | x | x
N#CCCn1cc(C(=O)n2nnc3ccccc32)c(-c2ccccc2)n1 | n | n | x | x
CN1C(=O)/C(=C/c2ccc(I)o2)C(=O)NC1=S | n | 46 | 56 | 812
O=C1NC(=S)N(c2ccc(Br)cc2)C(=O)/C1=C\c1ccc(-c2ccccc2C(=O)O)o1 | n | n | x | x
O=c1cccc2n1CC1CC2CN(Cc2nnc(-c3ccccc3F)o2)C1 (stereo unspecified) | n | n | x | x
CCn1cc(C=C2C(=O)NC(=O)NC2=O)c2ccccc21 | n | n | 19 | 15779
CCn1cc(C(=O)c2ccccc2)c2ccccc21 | n | n | x | x
CCN1C[C@]2(COC)CC[C@H](O)[C@@]34C5C[C@@H]6[C@@H](OC)C[C@@](O)(C5[C@H]6OC(C)=O)[C@@H](CC23)[C@@H]14 (stereo partly specified) | n | n | x | x
Cc1noc(C2CCCNC2)n1 (stereo unspecified) | x | n | x | x
CN(N=O)c1ccc(O)c(O)c1 | 102 | 37 | 42 | 3178
